Source: patent publication US8642265B2, “Compositions and methods for the detection of topoisomerase II complexes with DNA” (The Children's Hospital of Philadelphia, priority 2004, dated 2014)

Chains of the proteins cited; added tags and fusions are not shown. Lines headed by an entry give the natural chain unless they say otherwise; changes in a name come on top.
UniProt P11388: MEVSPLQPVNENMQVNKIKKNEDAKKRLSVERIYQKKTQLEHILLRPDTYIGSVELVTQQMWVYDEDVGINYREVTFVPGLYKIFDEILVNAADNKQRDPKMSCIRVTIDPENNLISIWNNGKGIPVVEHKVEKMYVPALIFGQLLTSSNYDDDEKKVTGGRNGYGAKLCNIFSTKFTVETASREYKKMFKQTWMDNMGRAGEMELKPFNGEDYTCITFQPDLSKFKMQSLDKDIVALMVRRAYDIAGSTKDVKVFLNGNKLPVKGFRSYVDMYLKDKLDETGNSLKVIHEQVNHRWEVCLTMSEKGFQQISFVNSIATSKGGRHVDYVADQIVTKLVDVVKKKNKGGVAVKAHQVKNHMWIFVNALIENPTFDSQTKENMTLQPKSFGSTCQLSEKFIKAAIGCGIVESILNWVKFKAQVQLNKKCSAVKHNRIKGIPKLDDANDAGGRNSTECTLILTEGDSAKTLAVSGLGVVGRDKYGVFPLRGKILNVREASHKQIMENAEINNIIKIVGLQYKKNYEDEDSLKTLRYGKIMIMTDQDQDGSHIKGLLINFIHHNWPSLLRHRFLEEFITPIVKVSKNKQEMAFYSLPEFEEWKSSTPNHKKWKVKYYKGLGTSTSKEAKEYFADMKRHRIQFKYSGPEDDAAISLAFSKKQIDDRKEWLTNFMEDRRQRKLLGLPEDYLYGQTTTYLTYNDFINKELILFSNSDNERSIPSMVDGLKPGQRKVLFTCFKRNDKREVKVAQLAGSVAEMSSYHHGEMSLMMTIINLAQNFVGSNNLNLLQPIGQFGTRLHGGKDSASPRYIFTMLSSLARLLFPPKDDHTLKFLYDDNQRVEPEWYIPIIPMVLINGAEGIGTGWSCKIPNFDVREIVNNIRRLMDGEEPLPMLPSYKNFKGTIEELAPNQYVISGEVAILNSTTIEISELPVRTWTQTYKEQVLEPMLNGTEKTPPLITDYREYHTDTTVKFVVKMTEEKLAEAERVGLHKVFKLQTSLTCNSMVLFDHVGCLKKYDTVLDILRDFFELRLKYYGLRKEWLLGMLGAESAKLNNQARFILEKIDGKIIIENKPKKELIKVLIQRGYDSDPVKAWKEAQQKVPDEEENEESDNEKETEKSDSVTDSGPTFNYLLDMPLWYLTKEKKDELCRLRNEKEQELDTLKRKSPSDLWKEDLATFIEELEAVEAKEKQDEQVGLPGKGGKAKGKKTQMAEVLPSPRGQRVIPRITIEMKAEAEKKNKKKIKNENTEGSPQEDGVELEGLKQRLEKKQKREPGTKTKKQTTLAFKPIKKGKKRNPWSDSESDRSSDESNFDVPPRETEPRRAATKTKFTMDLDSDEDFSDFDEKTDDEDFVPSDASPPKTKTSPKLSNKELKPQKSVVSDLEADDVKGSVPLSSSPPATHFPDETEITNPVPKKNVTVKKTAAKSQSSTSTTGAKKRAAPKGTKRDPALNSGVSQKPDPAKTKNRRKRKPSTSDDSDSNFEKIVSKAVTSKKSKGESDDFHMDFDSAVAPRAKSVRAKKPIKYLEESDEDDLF

Experiments:
[1] = molecular target: T1, DNA topoisomerase II covalent complexes with MLL and other sequences in CD34+ cells (Homo sapiens, UniProt P11388); experiment: Immunoaffinity purification, DOP amplification and real-time PCR of DNA topoisomerase IIα-bound DNA; format: cell-based
T1 construct: endogenous in cells; host or cells: primary human bone marrow CD34+ cells, expanded ex vivo

[2] = molecular target: human DNA topoisomerase IIα (Homo sapiens, UniProt P11388); experiment: DNA topoisomerase II in vitro cleavage assay

Compound: COc1cc([C@@H]2c3cc4c(cc3[C@@H](O[C@@H]3O[C@@H]5CO[C@@H](C)O[C@H]5[C@H](O)[C@H]3O)[C@H]3COC(=O)[C@H]23)OCO4)cc(OC)c1O [etoposide]
- real-time PCR products, MLL intron 7-exon 8 amplicon [1]: real-time PCR products that were detected
- real-time PCR products, GAPDH amplicon ([1]; 100 μM, 2 hours): No products were detected
- real-time PCR products, MLL intron 8-exon 9 amplicon (MLL bcr positions 6784 to 6851) ([1]; 100 μM, 2 hours): products were detected
- DNA topoisomerase II covalent complexes proximal to MLL exon 25 amplicon ([1]; 100 μM, 2 hours, no product in untreated cells): induced DNA-DNA topoisomerase II covalent complexes
- cleavage at AF-4 intron 3 position 7126 relative to the strongest enzyme-only cleavage in the substrate (position 7114) ([2]; 20 μM, AF-4 intron 3 substrate): 3.2 fold
- enzyme-only cleavage at GAS7 position 1238 relative to cleavage with etoposide ([2]; etoposide 20 μM, GAS7 substrate 1129 to 1440): 0.44 fold
- enzyme-only cleavage at MLL bcr position 4675 relative to cleavage with etoposide ([2]; etoposide 20 μM, MLL intron 8 substrate 4589 to 4768): 0.27 fold
